Assay results as given in patent US20120190707A1, “SELECTIVE INHIBITORS OF AKT AND METHODS OF USING SAME” (priority 2008, published 2012).

Protein sequences, listed by entry. Tags and fused reporters are not part of them. Lines headed by an entry give the natural chain unless they say otherwise; changes in a name come on top.
UniProt P31749: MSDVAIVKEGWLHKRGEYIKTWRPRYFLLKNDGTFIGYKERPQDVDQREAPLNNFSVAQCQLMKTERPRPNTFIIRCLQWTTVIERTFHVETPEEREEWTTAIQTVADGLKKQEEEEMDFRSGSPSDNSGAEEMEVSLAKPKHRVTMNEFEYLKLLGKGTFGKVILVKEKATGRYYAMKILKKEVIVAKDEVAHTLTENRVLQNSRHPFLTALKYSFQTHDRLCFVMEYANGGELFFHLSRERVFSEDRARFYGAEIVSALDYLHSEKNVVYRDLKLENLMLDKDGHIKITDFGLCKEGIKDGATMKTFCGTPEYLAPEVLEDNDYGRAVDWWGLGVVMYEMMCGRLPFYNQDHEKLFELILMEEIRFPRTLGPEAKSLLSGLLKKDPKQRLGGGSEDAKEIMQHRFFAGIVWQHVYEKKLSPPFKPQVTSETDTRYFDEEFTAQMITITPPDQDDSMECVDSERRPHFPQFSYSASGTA

Biological target: Akt1 (Homo sapiens, UniProt P31749)
Experiment: Akt1 inhibition, Z'-LYTE kit fluorescent-enzymatic assay
Assay type: biochemical
Details: Table 2, derivatives of Compound 1
Protocol: Here the top 4000 compounds out of 50000 docked compounds were selected using FlexX and Drugscore (BioSolvIT). The top 4000 docked structures were further evaluated and ranked according to Goldscore and Chemscore functions (CSCORE). A list of common 200 compounds was then selected among ranked top 700 compounds according to both scoring functions (FIG. 1B). […] The remaining 100 compounds were experimentally tested up to 30 μM against Akt1. The inhibitory activity was evaluated for the selected compounds by using Z'-LYTE™ kit assay provided by Invitrogen Corporation (19). […] Corning® 384-well low volume plates (20 μl) were used. The fluorescent-enzymatic assay has been performed following the protocol provided by Invitrogen Corporation, using a fluorescent plate reader (Victor2, Perkin-Elmer). […] C) Lineweaver-Burk Km and Km(app) evaluation for Akt1. Each measurement was performed in triplicate. […] The Ki and the Km(app) were calculated at fixed inhibitor concentrations, as reported in the text. All constant values were definitely evaluated by fitting the data to the Lineweaver-Burk plot; D) Akt1 inhibition assay using GSK-3 as a substrate. Comparison of compounds 1 and 2 (Table 1) with H89 at 10 μM. […]
For these purposes, we initially determined the Km and the Vmax of the enzymatic reaction involving the peptide provided by the Z'-LYTE™ kit assay and Akt1 by varying the concentration of ATP. […]

SMILES: CC1=C(C#N)c2nc(N)c(C#N)c(C)c2C1=Cc1ccc(-c2ccc(C(=O)O)cc2)o1 [Compound 4]
- IC50: 126 µM
